Laboratory results: patent publication US5576341A, “2-[[2-(N-isobutyl-N-methyl)amino]benzylsulfinyl]-benzimidazole as antimicrobial agent” (Nippon Chemiphar Co., Ltd., priority 1993, dated 1996)

How the values were obtained:
[1] = system: Helicobacter pylori standard strains and wild strains; details: Table 1 summary
[2] = system: Helicobacter pylori standard strains and wild strains; experiment: microbe, parasite or virus in culture; details: 144 h, read-out: MIC range against the standard strains as well as wild strains

Row | Compound | antimicrobial activity to Helicobacter pylori (in words) [1] | MIC [2] [µg/mL]
1 | NC(N)=Nc1nc(CSCCC(N)=NS(N)(=O)=O)cs1 [Famotidine] | low antimicrobial activity | 
2 | CN/C(=N/CCSCc1nc[nH]c1C)NC#N [Cimetidine] | low antimicrobial activity | 
3 | CC(C)CN(C)c1ccccc1C[S+]([O-])c1nc2ccccc2[nH]1 (stereo not shown) [Compound (1), 2-[[2-(N-isobutyl-N-methyl)amino]benzylsulfinyl]benzimidazole] | comparable to Omeprazole | 12.5 to 50 (≈ 36.6 to 146 µM)

≈ marks a conversion by molar mass, not a printed value.
